Test results reported in patent US7261876B2, “Multivalent constructs for therapeutic and diagnostic applications” (Bracco International BV, priority 2002, dated 2007).
Read-outs that look alike come from different tables or passages of the source.

The chains behind the UniProt entries cited, without tags or fusion partners. Residues count along the entry.
UniProt P35968, 20-1356: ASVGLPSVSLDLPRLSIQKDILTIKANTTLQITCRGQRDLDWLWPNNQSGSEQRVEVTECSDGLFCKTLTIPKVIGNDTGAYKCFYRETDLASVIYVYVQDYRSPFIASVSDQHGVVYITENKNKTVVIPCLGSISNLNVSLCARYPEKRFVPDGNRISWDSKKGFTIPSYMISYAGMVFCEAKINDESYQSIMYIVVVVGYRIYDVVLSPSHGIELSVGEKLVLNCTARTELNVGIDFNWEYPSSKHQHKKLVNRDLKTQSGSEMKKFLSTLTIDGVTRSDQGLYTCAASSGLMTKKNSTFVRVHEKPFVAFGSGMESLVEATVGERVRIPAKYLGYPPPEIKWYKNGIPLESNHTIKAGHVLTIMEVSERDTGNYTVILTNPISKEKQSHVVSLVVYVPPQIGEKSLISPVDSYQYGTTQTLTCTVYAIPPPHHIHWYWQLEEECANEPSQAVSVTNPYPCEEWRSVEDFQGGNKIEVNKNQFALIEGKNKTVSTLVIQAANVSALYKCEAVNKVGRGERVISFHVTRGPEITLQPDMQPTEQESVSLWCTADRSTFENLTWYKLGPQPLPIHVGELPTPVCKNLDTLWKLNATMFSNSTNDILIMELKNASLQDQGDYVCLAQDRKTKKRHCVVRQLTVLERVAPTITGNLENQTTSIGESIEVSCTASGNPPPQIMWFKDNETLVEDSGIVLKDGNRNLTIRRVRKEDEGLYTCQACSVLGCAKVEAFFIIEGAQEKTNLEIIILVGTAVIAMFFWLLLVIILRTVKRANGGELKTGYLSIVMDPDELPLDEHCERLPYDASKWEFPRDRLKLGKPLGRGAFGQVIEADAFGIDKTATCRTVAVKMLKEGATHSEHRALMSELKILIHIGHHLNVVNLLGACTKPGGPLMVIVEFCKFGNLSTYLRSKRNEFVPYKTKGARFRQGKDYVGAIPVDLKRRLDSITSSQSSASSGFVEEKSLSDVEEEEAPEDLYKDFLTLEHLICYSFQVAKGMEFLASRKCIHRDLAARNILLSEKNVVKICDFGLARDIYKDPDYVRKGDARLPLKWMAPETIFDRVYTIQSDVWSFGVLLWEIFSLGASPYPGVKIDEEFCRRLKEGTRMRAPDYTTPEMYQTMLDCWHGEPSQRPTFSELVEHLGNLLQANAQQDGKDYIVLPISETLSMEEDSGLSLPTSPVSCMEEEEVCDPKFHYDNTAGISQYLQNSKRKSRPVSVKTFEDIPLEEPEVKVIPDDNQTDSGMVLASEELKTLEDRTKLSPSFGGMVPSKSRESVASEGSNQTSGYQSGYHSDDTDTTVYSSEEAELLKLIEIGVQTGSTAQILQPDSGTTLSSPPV

Experiments:
[1] = molecular target: KDR expressed in transiently-transfected 293H cells (Homo sapiens, UniProt P35968); test: Binding of biotinylated peptide/neutravidin (avidin) HRP complexes to KDR-transfected 293H cells; details: tetrameric peptide/neutravidin HRP complex; saturation binding, KDR minus mock
KDR-expressing cells = molecular target: T1, KDR-expressing cells (Homo sapiens, UniProt P35968); test: Displacement assay competing with P12-XB/streptavidin-HRP complex for binding to KDR-expressing cells; details: complex concentration 5.5 nM
T1 construct: Both PCR products were digested with Not1 and ligated together to create the full-length receptor; V5-His (encoded by the vector); expressed in transfected cells; host or cells: 293H cells (Invitrogen cat. # 11631), transient lipofectamine 2000 transfection

## Ac-AGPTWCEDDWYYCWLFGTJK-(Biotin-JJ-)-NH2 [P12-F-XB]
[1]
  Kd: 3.02 nM

## Ac-AQDWYYDEILJGRGRGGRGG-NH2 [F3]
KDR-expressing cells; read-out: IC50
  IC50: 175 nM

## Ac-AQDWYYDEILSMADQLRHAFLSGG-GGGK-(Biotin-JJ-)-NH2 [P13-XB]
KDR-expressing cells
  IC50: 93 nM
